Laboratory results published in patent US8377967B2, “Piperidine derivative” (Nippon Zoki Pharmaceutical Co., Ltd., priority 2008, dated 2013).

By UniProt entry, the sequences of proteins in these tests, tags left out.
UniProt P70174, whole entry: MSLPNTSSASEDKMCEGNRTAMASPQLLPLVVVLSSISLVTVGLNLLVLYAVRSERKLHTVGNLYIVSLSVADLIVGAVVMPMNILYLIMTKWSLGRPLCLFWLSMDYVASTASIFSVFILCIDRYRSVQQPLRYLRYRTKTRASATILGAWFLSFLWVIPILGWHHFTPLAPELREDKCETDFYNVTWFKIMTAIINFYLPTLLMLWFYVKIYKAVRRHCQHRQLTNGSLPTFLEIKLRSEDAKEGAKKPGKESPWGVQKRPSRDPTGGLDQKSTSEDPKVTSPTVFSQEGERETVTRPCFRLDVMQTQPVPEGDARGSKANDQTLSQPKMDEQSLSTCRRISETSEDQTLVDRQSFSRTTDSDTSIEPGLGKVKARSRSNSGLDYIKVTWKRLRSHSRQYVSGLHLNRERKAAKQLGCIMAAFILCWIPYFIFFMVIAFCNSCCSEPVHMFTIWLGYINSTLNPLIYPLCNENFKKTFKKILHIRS

Target: T1, cerebral H1 receptor (Mus musculus, UniProt P70174)
T1 construct: the entire brain, except for cerebellum and medulla oblongatae, was rapidly excised; from tissue; host or cells: brain homogenate (without cerebellum and medulla oblongata) of orally dosed ICR male mice
Assay: Murine cerebral H1 receptor occupying content (ex vivo)
Type: in vivo
Conditions: ID50 of cerebral receptor binding test (Table 20) divided by ED50 of vascular hyperpermeability test (Table 19)
Method: A 6-week-old ICR male mouse was previously fed for one week or more by allowing the mouse to take a solid feed and tap water ad libitum, under the environment setting of a temperature of 22° C., humidity of 55% and an artificial illumination of 12 hours a day, and the mouse was fasted overnight to be used for the experiment. A substance to be tested was dissolved with water for injection or suspended in 0.5% carboxymethyl cellulose solution, and the solution or suspension was orally administered to the mouse (dose volume: 0.1 mL/10 g body weight). […]
To a test tube for reaction (TPX-Tube) were added 180 μL of the brain homogenate, and 10 μL of ^3H-pyrilamine solution (final concentration: 2 nmol/L) and 10 μL of a non-labeled pyrilamine solution (final concentration: 200 μmol/L) or a 50 mmol/L phosphate buffered saline, and the mixture was incubated at room temperature for 45 minutes, and 2.0 mL of an ice-cooled, 50 mmol/L phosphate buffered saline was then added thereto to stop the reaction. […] After drying, 10 mL of a scintillator (AL-1, toluene-based, manufactured by DOJINDO LABORATORIES) was added to the product, and the disintegration per minute (dpm) was measured with a liquid scintillation counter (manufactured by Packard, U.S.A., TRI-CARB 2700TR) (5 minutes/vial).

ID50 (mg/kg)/ ED50 (mg/kg): 0.9
SMILES: CN1CCC(=C2c3ccccc3CC(=O)c3sccc32)CC1 [Ketotifen, reference compound]
